From BindingDB's records for doi:10.1124/mol.54.2.322 (Georgetown University, 1998)

Sequences of proteins named here, by UniProt entry; tags and fusion partners are left off.
UniProt P04757, whole entry: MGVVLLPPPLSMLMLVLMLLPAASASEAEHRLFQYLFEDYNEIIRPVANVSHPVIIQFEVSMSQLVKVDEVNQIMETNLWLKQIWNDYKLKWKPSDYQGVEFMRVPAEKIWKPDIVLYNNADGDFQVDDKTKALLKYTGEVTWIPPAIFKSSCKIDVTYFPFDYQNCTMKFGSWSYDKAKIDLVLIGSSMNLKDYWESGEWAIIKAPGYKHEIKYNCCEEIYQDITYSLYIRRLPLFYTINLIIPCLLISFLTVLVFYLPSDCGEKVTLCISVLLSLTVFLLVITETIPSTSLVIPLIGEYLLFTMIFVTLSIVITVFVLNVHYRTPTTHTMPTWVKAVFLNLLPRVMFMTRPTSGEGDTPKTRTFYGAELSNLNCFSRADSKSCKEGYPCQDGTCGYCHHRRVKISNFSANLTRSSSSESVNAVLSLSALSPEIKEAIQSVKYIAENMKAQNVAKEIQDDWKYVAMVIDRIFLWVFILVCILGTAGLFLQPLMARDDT

Biological target: Neuronal acetylcholine receptor subunit alpha-3 (Rattus norvegicus, UniProt P04757)

For `CNC1(C)C2CCC(C2)C1(C)C` (stereo unspecified) [Methyl-(2,3,3-trimethyl-bicyclo[2.2.1]hept-2-yl)-amine(Mecamylamine)], the Ki was greater than 10 µM.
